Binding of CDR-mutated scFvs to a peptide of the spike HR2 region

From the AlphaSeq antibody data of Engelhart et al. 2022 (doi:10.1038/s41597-022-01779-4), copy in the FLAb collection.

Target peptide (SARS-CoV-2 spike, HR2 region): PDVDLGDISGINAS

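AAYL51 was designed without a model: most single CDR substitutions and a random sample of double and triple ones. Affinity was read by AlphaSeq, a pooled yeast mating assay with surface-displayed partners. Mating (16 h, 30 °C) was followed by selection of diploids and sequencing of their barcodes. Each replicate has its own calibration line, from reference interactions of the BCL2 family. Mating was done three times.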

Each scFv is VL, a 15-residue (Gly4Ser)3 linker, VH, as in the parent Ab-91, and differs from it in the CDRs of the heavy chain only.
VL: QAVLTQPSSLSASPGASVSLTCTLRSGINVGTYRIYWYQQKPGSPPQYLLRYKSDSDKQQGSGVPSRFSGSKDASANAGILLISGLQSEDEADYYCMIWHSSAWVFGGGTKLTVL
VH: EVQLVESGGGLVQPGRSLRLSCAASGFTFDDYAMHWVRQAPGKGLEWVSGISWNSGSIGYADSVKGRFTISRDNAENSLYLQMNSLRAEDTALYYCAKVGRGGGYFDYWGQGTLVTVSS

Each variant is given by its three heavy chain CDRs, as the data file delimits them; those of the parent are GFTFDDYAMH, GISWNSGSIGYADSVK, VGRGGGYFDY. This list gathers variants with a substitution at G50 (VH, numbered from residue 1). Values are apparent Kd, the geometric mean of the replicates that gave a signal; lower means stronger binding. "no signal" marks a missing value. The strain was present, yet no cells mated with the target were sequenced in any replicate, which points to weak or no binding. In this assay the parent's reference entry averaged 72 nM; its copy inside this library read 7.5 nM. Nonspecific signal, from three strains lacking the peptide, appeared in 21% of pairings of library AAYL51, centred on 34 µM (5% of these signals below 1.8 µM); values are not corrected for it.

* GFTFDDYAMH, AISCNSGSIGYADSVN, VGRGGGYFDY -> 15 µM (2 of 3 replicates)
* GYTFDDYAMH, TWSWNSGSIGYADSVK, VGRGGGYFDY -> no signal (0 of 3 replicates)
* GFTFDDYAMH, TISWNSGSIGYADSVK, VGRGGGYFDY -> 890 µM (2 of 3 replicates)
* FFTFDDYAMH, LIQWNSGSIGYADSVK, VGRGGGYFDY -> 5.9 µM (1 of 3 replicates)
* GFTFDDYAMH, MISWNSGSIGYCDSVK, VGRGGGYADY -> no signal (0 of 3 replicates)
* GFTFDDYAMH, WISWNVGSIGYADSVK, VGRFGGYFDY -> no signal (0 of 3 replicates)
* CFTFDDYAMH, HISWNSGSIGYADSVK, VGRGGGRFDY -> no signal (0 of 3 replicates)
* GFTFDDYAMH, RISWNSGSIGNADSVK, VGRGGGGFDY -> no signal (0 of 3 replicates)
* GFTFDDYAMH, AISWNSGSIGYADSVK, VGRGGGYFDY -> no signal (0 of 3 replicates)
* GFTDDDMAMH, LISWNSGSIGYADSVK, VGRGGGYFDY -> no signal (0 of 3 replicates)
* GFTFDDYAMW, MISWNSGSIGYADSVK, VGRGGGYFDS -> no signal (0 of 3 replicates)
* GFTFDTYAMH, RTSWNSGSIGYADSVK, VGRGGGYFDY -> no signal (0 of 3 replicates)
* GFTFDDYAMH, KVSWNSGSIGYADSVK, QGRGGGYFDY -> no signal (0 of 3 replicates)
* GFTFDDYAMH, EISWFSGSIGYADSVK, VGYGGGYFDY -> 1.0 µM (1 of 3 replicates)
* GFTFDDYADH, RISWNSGSIGYADSGK, VGRGGGYFDY -> 50 µM (3 of 3 replicates)
* GFTFDDYAMH, TILWNSGSRGYADSVK, VGRGGGYFDY -> no signal (0 of 3 replicates)
* GFTFDDYAMH, DDSWNSGSIGYADSVK, VGRGGGYFDY -> no signal (0 of 3 replicates)
* GFTFDDYAMH, MISWNSGVIGMADSVK, VGRGGGYFDY -> 23 µM (1 of 3 replicates)
* GFSFDDYAMH, TISWNSGSIGYADSVN, VGRGGGYFDY -> no signal (0 of 3 replicates)
* GFTFDDYQMH, TISWNSGSIGYADSVK, VGRGWGYFDY -> no signal (0 of 3 replicates)
* GFTFDDYAWH, RISWASGSIGYADSVK, VGRGGGYFDY -> 50 µM (3 of 3 replicates)
* GFTFDDYAMH, TISWNSGSIGYPDSVK, VGRGGGYFDY -> 15 µM (2 of 3 replicates)
* GFTFDDYAMH, DISWNSGSIGYWDEVK, VGRGGGYFDY -> no signal (0 of 3 replicates)
* GFTFDDYAMH, SISWNSGSIHYADSVM, VGRGGGYFDY -> 110 µM (1 of 3 replicates)
* GFTFDDYHMH, KISWNSGSIGYADSVD, VGRGGGYFDY -> 100 µM (3 of 3 replicates)
* GFTFDDYAWH, LISWNSGSIGYADSVQ, VGRGGGYFDY -> no signal (0 of 3 replicates)
* GFTFDDYAMH, NISWRSGSLGYADSVK, VGRGGGYFDY -> no signal (0 of 3 replicates)
* GFTFDDYAME, AISWNSGSIGYADSVV, VGRGGGYFDY -> 160 µM (2 of 3 replicates)
* GFTFDDYAMH, VYSWNSGSWGYADSVK, VGRGGGYFDY -> 7.3 µM (1 of 3 replicates)
* GFTFDDYAMH, VTSWNSGSIGYFDSVK, VGRGGGYFDY -> 4.6 µM (1 of 3 replicates)
* GFTFDDYAMH, MISWNSGSPGGADSVK, VGRGGGYFDY -> 300 µM (1 of 3 replicates)
* GFTFDDYAMH, EISWVSGSIGYADSVS, VGRGGGYFDY -> 80 µM (2 of 3 replicates)
* GFWFDDYAMH, SISWNSGSIGYADFVK, VGRGGGYFDY -> 18 µM (2 of 3 replicates)
* GFTFDDYAMH, SISWNSHSIGYADSVK, VGRGGGYFIY -> 110 µM (2 of 3 replicates)
* GFTFDDYAMH, TISWNSGSIGYADSVK, NGRGGPYFDY -> no signal (0 of 3 replicates)
* GFTFDDYAMH, EISWYSGSIGYADSVK, VGRGGGYFDY -> 8.1 µM (1 of 3 replicates)
* GFTFDDYAMH, LISWNSGSIGYADSVK, VGRGGQYEDY -> 28 µM (2 of 3 replicates)
* GFTFDDYAMH, SISWNSGSIGYPDSVK, VGRGGGYFDY -> 48 µM (1 of 3 replicates)
* GFTFDDYAMH, DISWNSGSIGYEDSVK, VGRGGGYFDY -> 1.0 mM (1 of 3 replicates)
* GFTFDDYAMC, CISWNSGSICYADSVK, VGRGGGYFDY -> no signal (0 of 3 replicates)
* GFTFDDYAMH, HISWNSGSIGYADSVK, VGRGGGRFDY -> no signal (0 of 3 replicates)
* GFTFDDYAMH, LISWNSGSIGYADSDG, VGRGGGYFDY -> no signal (0 of 3 replicates)
* GFTFDDYAMH, WISWNSGSIGYADSVK, VGRGGGYFLY -> 2.7 µM (1 of 3 replicates)
* GFTFDDYAMH, EISWNSGSIGYADSVK, VGRGGGYIDM -> no signal (0 of 3 replicates)
* GFTFDDYPMH, EISWNSGSIGYADSVK, VGRGGGYFDY -> 230 µM (1 of 3 replicates)
* GFTFDDYAMH, YISWNSGSIGLADSVK, VGRGGGYFYY -> 31 µM (1 of 3 replicates)
* GFTFRTYAMH, RISWNSGSIGYADSVK, VGRGGGYFDY -> 140 µM (1 of 3 replicates)

The opening 5 entries, copied out:

* GFTFDDYAMH, AISCNSGSIGYADSVN, VGRGGGYFDY: 15 µM (2 of 3 replicates)
* GYTFDDYAMH, TWSWNSGSIGYADSVK, VGRGGGYFDY: no signal (0 of 3 replicates)
* GFTFDDYAMH, TISWNSGSIGYADSVK, VGRGGGYFDY: 890 µM (2 of 3 replicates)
* FFTFDDYAMH, LIQWNSGSIGYADSVK, VGRGGGYFDY: 5.9 µM (1 of 3 replicates)
* GFTFDDYAMH, MISWNSGSIGYCDSVK, VGRGGGYADY: no signal (0 of 3 replicates)